The values below come from PMC3336786 (The FASEB Journal, 2012).

The chains behind the UniProt entries cited, without tags or fusion partners. Where a name states a change or a piece, a line headed by the entry shows the natural chain unless it says otherwise. Residues count along the entry.
UniProt P18507, 40-475: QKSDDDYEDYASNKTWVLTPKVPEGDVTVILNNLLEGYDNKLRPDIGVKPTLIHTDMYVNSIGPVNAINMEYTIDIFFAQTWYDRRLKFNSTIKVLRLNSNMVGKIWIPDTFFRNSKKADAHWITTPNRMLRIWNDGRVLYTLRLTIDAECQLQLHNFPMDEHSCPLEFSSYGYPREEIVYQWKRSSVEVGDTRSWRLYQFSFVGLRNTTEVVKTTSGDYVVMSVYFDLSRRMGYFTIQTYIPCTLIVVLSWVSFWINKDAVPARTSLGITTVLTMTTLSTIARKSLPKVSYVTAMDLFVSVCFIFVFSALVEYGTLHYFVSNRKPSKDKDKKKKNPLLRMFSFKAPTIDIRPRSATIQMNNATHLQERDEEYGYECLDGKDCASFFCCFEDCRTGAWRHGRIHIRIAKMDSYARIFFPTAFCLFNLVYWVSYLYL

What is called IC50 is the concentration needed to halve the response being measured. The low end stands for inhibition by little substance, the high end for a need for much substance.

For one assay, the target named is α1V2'Aβ2γ2 (Homo sapiens, UniProt P14867+P18507+P47870, V284A). It counts as cell-based.
The target of another assay is T1, α1V2'Aβ2 (Homo sapiens, UniProt P14867+P47870, V284A).
T1 sequence (P14867 28-456 V284A): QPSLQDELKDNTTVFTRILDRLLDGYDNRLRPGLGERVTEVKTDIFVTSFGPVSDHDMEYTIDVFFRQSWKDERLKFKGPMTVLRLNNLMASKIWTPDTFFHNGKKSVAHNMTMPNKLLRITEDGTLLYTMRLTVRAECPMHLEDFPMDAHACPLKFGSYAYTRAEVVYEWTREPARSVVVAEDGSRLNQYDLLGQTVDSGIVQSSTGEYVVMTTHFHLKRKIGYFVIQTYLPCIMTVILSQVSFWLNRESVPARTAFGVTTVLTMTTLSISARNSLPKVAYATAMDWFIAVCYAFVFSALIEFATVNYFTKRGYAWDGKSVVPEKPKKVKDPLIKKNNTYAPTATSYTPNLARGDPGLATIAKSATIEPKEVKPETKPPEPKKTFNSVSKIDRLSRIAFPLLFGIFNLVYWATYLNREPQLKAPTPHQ
T1 sequence (P47870 26-512): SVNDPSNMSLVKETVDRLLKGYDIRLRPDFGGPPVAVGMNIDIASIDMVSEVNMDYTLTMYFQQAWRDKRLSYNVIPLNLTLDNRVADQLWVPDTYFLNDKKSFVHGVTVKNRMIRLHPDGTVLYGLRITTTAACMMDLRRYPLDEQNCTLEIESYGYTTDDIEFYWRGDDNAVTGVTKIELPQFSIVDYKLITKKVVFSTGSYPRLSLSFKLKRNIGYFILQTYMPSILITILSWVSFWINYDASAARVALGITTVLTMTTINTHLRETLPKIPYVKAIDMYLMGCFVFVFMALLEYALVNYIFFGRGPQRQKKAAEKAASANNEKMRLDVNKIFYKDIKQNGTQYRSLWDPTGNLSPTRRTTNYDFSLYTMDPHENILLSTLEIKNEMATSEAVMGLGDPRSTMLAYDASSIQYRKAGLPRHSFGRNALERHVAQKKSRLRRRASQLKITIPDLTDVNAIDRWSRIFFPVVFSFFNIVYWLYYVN
Format: cell-based. To be noted: IC50, inhibition of GABA EC50 response.

For `C[C@@H]1C(=O)O[C@H]2C[C@@]34[C@H]5C[C@@H](C(C)(C)C)[C@]36[C@@H](OC(=O)[C@@H]6O)O[C@@]4(C(=O)O5)[C@]21O` [GA, ginkgolide A], the results for the IC50 against α1V2'Aβ2γ2 and against α1V2'Aβ2 were 4.68 µM and 20.4 µM, respectively.
